# Only a part is listed here, and it is no random draw. Active and inactive are the calls of the source. How the source made its calls: active means hit-call score of the fitted dose curve at least 0.9, where 1 is the maximum; inactive means score below 0.9.
# Read-out: CYP2E1 (gene 1571)
# Assay: LTEA_HepaRG_CYP2E1: Life Technologies and Expression Analysis (LTEA) Assay for CYP2E1 using HepaRG (AID 2283485)
# Conditions: actives raise or lower the signal; mRNA level, 48 h
# Procedure, shortened: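 HepaRG cells, plated 48 h, then exposed 48 h in serum-free induction medium to eight half-log concentrations from 100 uM in 0.5% DMSO, duplicate. CYP2E1 mRNA by qRT-PCR, normalized to ACTB/GAPDH/POLR2A; bidirectional fit versus DMSO.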
row,SMILES,AC50
1,CN(C(=O)Cc1cccc2occc12)[C@H]1CC[C@@]2(CCCO2)C[C@@H]1N1CCCC1,active: 30 µM
2,CC(C)OP(=S)(OC(C)C)SCCNS(=O)(=O)c1ccccc1,active: 10.1 µM

# — PubChem BioAssay (EPA / NIEHS)
